Structures are written as SMILES.

By UniProt entry, the sequences of proteins in these tests, tags left out.
UniProt P41143, whole entry: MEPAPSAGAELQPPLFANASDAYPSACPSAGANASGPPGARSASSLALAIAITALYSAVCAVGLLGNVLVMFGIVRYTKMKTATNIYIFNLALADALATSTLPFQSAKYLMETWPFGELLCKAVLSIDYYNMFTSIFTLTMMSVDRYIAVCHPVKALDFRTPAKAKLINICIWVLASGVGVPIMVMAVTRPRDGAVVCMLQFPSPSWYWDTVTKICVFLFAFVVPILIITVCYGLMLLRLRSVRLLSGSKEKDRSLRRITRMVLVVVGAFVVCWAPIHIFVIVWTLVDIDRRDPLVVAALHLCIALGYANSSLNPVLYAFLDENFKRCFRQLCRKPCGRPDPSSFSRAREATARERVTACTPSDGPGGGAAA

This passage reports Ki and EC50 results from patent US8716436B2 (priority 2010, dated 2014).

The target in test [1] is human delta opioid receptor (Homo sapiens, UniProt P41143). The test can be described thus: biochemical. It is filed as binding.
Test [2] has as its target T1, cloned human delta opioid receptor (Homo sapiens, UniProt P41143).
T1 construct: expressed in transfected cells
The test can be described thus: biochemical.

In general, Ki refers to a dissociation constant, usually derived from enzyme kinetics or from competition with a known ligand. A high value points to lower affinity. As usually defined, the EC50 is the concentration that produces a half-maximal response. With `C[C@@H](NC(=O)[C@@H](N)Cc1ccc(O)cc1)C(=O)NCC(=O)N(C)[C@@H](Cc1ccccc1)C(=O)NCCO` [DAMGO, [D-Ala^2, N-Me-Phe^4, Gly-ol]-enkephalin, reference compound], in test [1], the affinity corresponds to a Ki of 0.589 µM. In test [2], this molecule returned an EC50 of 3.64 µM.
